Reference: US10040781B2, “Tank-binding kinase inhibitor compounds” (Gilead Sciences, Inc., priority 2014, dated 2018)

Amino acid sequences for entries named in this document (tags omitted). A change or cut given only in a name is not applied to a line headed by its entry.
UniProt Q9UHD2: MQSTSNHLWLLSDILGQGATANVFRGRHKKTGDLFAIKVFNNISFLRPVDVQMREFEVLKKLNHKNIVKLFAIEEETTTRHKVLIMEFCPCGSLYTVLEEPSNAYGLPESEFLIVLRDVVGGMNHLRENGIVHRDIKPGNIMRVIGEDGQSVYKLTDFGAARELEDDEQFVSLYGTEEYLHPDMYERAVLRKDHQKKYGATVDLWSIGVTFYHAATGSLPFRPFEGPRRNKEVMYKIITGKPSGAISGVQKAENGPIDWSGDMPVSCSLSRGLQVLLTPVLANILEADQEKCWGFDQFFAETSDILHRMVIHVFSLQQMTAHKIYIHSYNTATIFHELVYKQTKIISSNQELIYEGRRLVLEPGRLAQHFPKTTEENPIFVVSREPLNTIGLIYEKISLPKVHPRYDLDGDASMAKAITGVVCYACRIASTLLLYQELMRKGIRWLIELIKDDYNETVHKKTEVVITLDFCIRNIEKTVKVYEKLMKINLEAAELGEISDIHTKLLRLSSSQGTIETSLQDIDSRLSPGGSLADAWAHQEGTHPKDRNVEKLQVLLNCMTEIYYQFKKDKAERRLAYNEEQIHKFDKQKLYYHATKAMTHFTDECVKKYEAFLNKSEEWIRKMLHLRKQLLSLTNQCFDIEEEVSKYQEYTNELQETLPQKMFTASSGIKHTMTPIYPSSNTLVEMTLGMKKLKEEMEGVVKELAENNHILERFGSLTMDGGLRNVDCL
UniProt Q14164: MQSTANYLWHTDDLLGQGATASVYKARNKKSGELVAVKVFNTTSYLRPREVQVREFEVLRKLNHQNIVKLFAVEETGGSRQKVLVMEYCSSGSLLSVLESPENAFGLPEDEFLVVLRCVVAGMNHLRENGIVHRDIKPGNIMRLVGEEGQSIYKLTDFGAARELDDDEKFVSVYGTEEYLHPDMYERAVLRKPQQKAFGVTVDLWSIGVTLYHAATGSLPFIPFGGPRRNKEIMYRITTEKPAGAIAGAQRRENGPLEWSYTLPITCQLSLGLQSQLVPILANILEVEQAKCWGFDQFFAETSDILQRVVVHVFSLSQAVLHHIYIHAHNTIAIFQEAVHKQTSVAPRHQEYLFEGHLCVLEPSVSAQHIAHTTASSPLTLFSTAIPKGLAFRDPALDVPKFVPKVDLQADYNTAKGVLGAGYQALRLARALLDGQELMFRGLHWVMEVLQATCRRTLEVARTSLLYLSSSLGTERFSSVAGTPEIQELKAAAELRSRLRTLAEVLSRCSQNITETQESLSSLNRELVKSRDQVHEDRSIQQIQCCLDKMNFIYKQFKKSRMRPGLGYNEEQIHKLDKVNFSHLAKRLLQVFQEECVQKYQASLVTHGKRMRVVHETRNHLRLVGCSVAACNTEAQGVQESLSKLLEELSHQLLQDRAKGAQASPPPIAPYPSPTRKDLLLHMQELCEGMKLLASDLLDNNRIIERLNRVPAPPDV
UniProt O60674: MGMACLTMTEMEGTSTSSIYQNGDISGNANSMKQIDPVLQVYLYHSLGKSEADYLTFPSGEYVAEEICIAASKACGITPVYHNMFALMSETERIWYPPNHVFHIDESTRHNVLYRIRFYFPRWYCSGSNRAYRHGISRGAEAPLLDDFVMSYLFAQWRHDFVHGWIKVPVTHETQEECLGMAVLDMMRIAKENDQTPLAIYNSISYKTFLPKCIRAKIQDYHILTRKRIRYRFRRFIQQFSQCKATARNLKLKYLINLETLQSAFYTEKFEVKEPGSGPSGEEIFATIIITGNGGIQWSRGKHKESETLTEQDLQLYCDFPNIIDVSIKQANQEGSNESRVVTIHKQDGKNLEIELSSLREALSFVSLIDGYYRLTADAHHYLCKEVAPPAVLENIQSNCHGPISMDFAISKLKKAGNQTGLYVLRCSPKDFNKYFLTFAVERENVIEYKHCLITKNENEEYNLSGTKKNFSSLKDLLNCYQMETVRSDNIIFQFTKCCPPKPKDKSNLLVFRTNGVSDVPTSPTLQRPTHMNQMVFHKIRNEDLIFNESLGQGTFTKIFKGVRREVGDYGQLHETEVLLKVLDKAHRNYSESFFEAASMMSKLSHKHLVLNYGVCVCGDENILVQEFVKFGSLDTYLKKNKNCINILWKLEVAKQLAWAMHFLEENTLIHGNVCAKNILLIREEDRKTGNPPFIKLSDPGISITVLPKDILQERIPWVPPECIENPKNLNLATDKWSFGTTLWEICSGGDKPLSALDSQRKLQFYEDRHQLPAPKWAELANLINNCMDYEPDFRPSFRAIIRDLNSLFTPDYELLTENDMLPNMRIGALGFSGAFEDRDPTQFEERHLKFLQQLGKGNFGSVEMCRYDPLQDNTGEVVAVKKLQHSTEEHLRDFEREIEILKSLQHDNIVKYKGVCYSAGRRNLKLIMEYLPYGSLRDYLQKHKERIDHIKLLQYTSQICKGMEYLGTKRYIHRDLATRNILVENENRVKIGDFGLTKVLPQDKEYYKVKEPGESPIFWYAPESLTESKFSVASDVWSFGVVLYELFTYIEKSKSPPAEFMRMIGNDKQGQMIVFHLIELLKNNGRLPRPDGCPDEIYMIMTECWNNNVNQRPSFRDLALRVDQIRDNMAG

Target: TBK1 (Homo sapiens (Human), UniProt Q9UHD2)
Assay: TBK1 TR-FRET enzymatic assay;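 note: phosphorylation of a biotinylated Ser/Thr peptide by purified full-length recombinant TBK1, read by TR-FRET after 240 min at 25 °C, IC50 is the geometric mean of at least four runs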
Conditions: not given

IC50 [nM]	Structure (SMILES)
3	C[C@H](O)C(=O)N1CC[C@H](Oc2ccc(-c3ncnc(Nc4ccc(N5CCN(C6COC6)CC5)c(C#N)c4)n3)cc2C#N)[C@H](F)C1 [Example 369, 5-((4-(3-cyano-4-(((3R,4S)-3-fluoro-1-((S)-2-hydroxypropanoyl)piperidin-4-yl)oxy)phenyl)-1,3,5-triazin-2-yl)amino)-2-(4-(oxetan-3-yl)piperazin-1-yl)benzonitrile]
1	N#Cc1cc(-c2ncnc(Nc3ccc(N4CCN(C5COC5)CC4)cc3)n2)ccc1O[C@@H]1CCN(C(=O)CO)C[C@@H]1F (racemic) [Example 218, 2-((cis-3-fluoro-1-(2-hydroxyacetyl)piperidin-4-yl)oxy)-5-(4-((4-(4-(oxetan-3-yl)piperazin-1-yl)phenyl)amino)-1,3,5-triazin-2-yl)benzonitrile]
8	C[C@@H](O)C(=O)N1CC[C@H](Oc2ccc(-c3ncnc(Nc4ccc(N5CCN(C6COC6)CC5)cc4)n3)cc2C#N)[C@H](F)C1 [Example 464, 2-(((3R,4S)-3-fluoro-1-((R)-2-hydroxypropanoyl)piperidin-4-yl)oxy)-5-(4-((4-(4-(oxetan-3-yl)piperazin-1-yl)phenyl)amino)-1,3,5-triazin-2-yl)benzonitrile]
4	C[C@H](O)C(=O)N1CC[C@@H](Oc2ccc(-c3ncnc(Nc4ccc(N5CCN(C6COC6)CC5)cc4)n3)cc2C#N)[C@H](F)C1 [Example 234, 2-(((3R,4R)-3-fluoro-1-((S)-2-hydroxypropanoyl)piperidin-4-yl)oxy)-5-(4-((4-(4-(oxetan-3-yl)piperazin-1-yl)phenyl)amino)-1,3,5-triazin-2-yl)benzonitrile]
1	N#Cc1cc(-c2ncnc(Nc3ccc(N4CCN(C5COC5)CC4)cc3)n2)ccc1O[C@H]1CCN(C(=O)CO)C[C@H]1F [Example 237, 2-(((3R,4S)-3-fluoro-1-(2-hydroxyacetyl)piperidin-4-yl)oxy)-5-(4-((4-(4-(oxetan-3-yl)piperazin-1-yl)phenyl)amino)-1,3,5-triazin-2-yl)benzonitrile]
483	N#Cc1cc(-c2ncnc(Nc3ccc(N4CCN(C5COC5)CC4)cc3)n2)ccc1O[C@H]1CCN(C(=O)[C@@H]2CCCN2)C[C@H]1F [Example 133, 2-(((3R,4S)-3-fluoro-1-((S)-pyrrolidine-2-carbonyl)piperidin-4-yl)oxy)-5-(4-((4-(4-(oxetan-3-yl)piperazin-1-yl)phenyl)amino)-1,3,5-triazin-2-yl)benzonitrile]
2	N#Cc1cc(-c2ncnc(Nc3ccc(N4CCN(C5COC5)CC4)cc3)n2)ccc1O[C@@H]1CCN(C(=O)CO)C[C@H]1F [Example 235, 2-(((3R,4R)-3-fluoro-1-(2-hydroxyacetyl)piperidin-4-yl)oxy)-5-(4-((4-(4-(oxetan-3-yl)piperazin-1-yl)phenyl)amino)-1,3,5-triazin-2-yl)benzonitrile]
9	N#Cc1cc(-c2ncnc(Nc3ccc(N4CCN(C5COC5)CC4)cc3)n2)ccc1O[C@@H]1CCN(C(=O)CO)C[C@@H]1F [Example 224, 2-(((3S,4R)-3-fluoro-1-(2-hydroxyacetyl)piperidin-4-yl)oxy)-5-(4-((4-(4-(oxetan-3-yl)piperazin-1-yl)phenyl)amino)-1,3,5-triazin-2-yl)benzonitrile]

Target: IKKε (Homo sapiens (Human), UniProt Q14164)
Assay: IKKε TR-FRET enzymatic assay
Type: biochemical
Conditions: TR-FRET, 2×Km ATP; geometric mean of minimum four determinations; read-out: IKKe IC50

IC50 [nM]	Structure (SMILES)
26	C[C@H]1OC(=O)N[C@@H]1C(=O)N1CC[C@H](Oc2ccc(-c3ncnc(Nc4ccc(N5CCN(C6COC6)CC5)cc4)n3)cc2C#N)[C@H](F)C1 [Example 523, 2-(((3R,4S)-3-fluoro-1-((4S,5R)-5-methyl-2-oxooxazolidine-4-carbonyl)piperidin-4-yl)oxy)-5-(4-((4-(4-(oxetan-3-yl)piperazin-1-yl)phenyl)amino)-1,3,5-triazin-2-yl)benzonitrile]
6	N#Cc1cc(-c2ncnc(Nc3ccc(N4CCN(C5COC5)CC4)cc3)n2)ccc1O[C@H]1CCN(C(=O)[C@@H]2C[C@@H](O)C(=O)N2)C[C@H]1F [Example 403, 2-(((3R,4S)-3-fluoro-1-((2S,4R)-4-hydroxy-5-oxopyrrolidine-2-carbonyl)piperidin-4-yl)oxy)-5-(4-((4-(4-(oxetan-3-yl)piperazin-1-yl)phenyl)amino)-1,3,5-triazin-2-yl)benzonitrile]
10	N#Cc1cc(-c2ncnc(Nc3ccc(N4CCN(C5COC5)CC4)cc3)n2)ccc1O[C@H]1CCN(C(=O)[C@@H]2C[C@@H](F)C(=O)N2)C[C@H]1F [Example 405, 2-(((3R,4S)-3-fluoro-1-((2S,4R)-4-fluoro-5-oxopyrrolidine-2-carbonyl)piperidin-4-yl)oxy)-5-(4-((4-(4-(oxetan-3-yl)piperazin-1-yl)phenyl)amino)-1,3,5-triazin-2-yl)benzonitrile]

Structure (SMILES)	IC50 [nM]
Cc1cc(Nc2ncnc(-c3ccc(O[C@H]4CCN(C(=O)[C@@H](O)CO)C[C@H]4F)c(C#N)c3)n2)ccc1N1CCN(C2COC2)CC1 [Example 575, 2-(((3R,4S)-1-((S)-2,3-dihydroxypropanoyl)-3-fluoropiperidin-4-yl)oxy)-5-(4-((3-methyl-4-(4-(oxetan-3-yl)piperazin-1-yl)phenyl)amino)-1,3,5-triazin-2-yl)benzonitrile]	1

Same assay, conditions: read-out: IKKe IC50

IC50 [nM]	Structure (SMILES)
26	N#Cc1cc(-c2ncnc(Nc3ccc(C(N)=O)cc3)n2)ccc1O[C@@H]1CCN(C(=O)CO)C1 [Example 85, (R)-4-((4-(3-cyano-4-((1-(2-hydroxyacetyl)pyrrolidin-3-yl)oxy)phenyl)-1,3,5-triazin-2-yl)amino)benzamide]
5	CC1(C)CN(C(=O)CO)CC[C@@H]1Oc1ccc(-c2ncnc(Nc3ccc(N4CCN(C5COC5)CC4)cc3)n2)cc1C#N (single isomer, unassigned) [Example 175]
14	N#Cc1cc(-c2ncnc(Nc3ccc(N4CCN(C5COC5)CC4)cc3)n2)ccc1O[C@H]1CCN(C(=O)CO)CC1(F)F (single isomer, unassigned) [Example 152]
1	N#Cc1cc(-c2ncnc(Nc3ccc(N4CCN(C5COC5)CC4)cc3)n2)ccc1O[C@H]1CCN(C(=O)CO)C[C@H]1F [Example 237, 2-(((3R,4S)-3-fluoro-1-(2-hydroxyacetyl)piperidin-4-yl)oxy)-5-(4-((4-(4-(oxetan-3-yl)piperazin-1-yl)phenyl)amino)-1,3,5-triazin-2-yl)benzonitrile]
26	C[C@H](O)C(=O)N1CC[C@@H](Oc2ccc(-c3ncnc(Nc4ccc(N5CCN(C6COC6)[C@H](C)C5)cc4)n3)cc2C#N)C(F)(F)C1 [Example 245, 2-(((R)-3,3-difluoro-1-((S)-2-hydroxypropanoyl)piperidin-4-yl)oxy)-5-(4-((4-((R)-3-methyl-4-(oxetan-3-yl)piperazin-1-yl)phenyl)amino)-1,3,5-triazin-2-yl)benzonitrile]
26	N#Cc1cc(-c2ncnc(Nc3ccc(N4CCN(C5COC5)CC4)cc3)n2)ccc1O[C@@H]1CN(C(=O)CO)C[C@@H]1F [Example 101, 2-(((3R,4S)-4-fluoro-1-(2-hydroxyacetyl)pyrrolidin-3-yl)oxy)-5-(4-((4-(4-(oxetan-3-yl)piperazin-1-yl)phenyl)amino)-1,3,5-triazin-2-yl)benzonitrile]
607	C[C@@H](O)C(=O)N1CC[C@@H](Oc2ccc(-c3ncnc(Nc4ccc(N5CCN(C6COC6)CC5)cc4)n3)cc2C#N)C1 [Example 91, 2-(((R)-1-((R)-2-hydroxypropanoyl)pyrrolidin-3-yl)oxy)-5-(4-((4-(4-(oxetan-3-yl)piperazin-1-yl)phenyl)amino)-1,3,5-triazin-2-yl)benzonitrile]
26	N#CCC(=O)N1CCC(Oc2ccc(-c3ncnc(Nc4ccc(N5CCN(C6COC6)CC5)cc4)n3)cc2C#N)CC1 [Example 44, 2-((1-(2-cyanoacetyl)piperidin-4-yl)oxy)-5-(4-((4-(4-(oxetan-3-yl)piperazin-1-yl)phenyl)amino)-1,3,5-triazin-2-yl)benzonitrile]

Structure (SMILES)	IC50 [nM]
C[C@H](O)C(=O)N1CC[C@H](Oc2ccc(-c3ncnc(Nc4ccc(N5C6COCC5C6)cc4)n3)cc2C#N)[C@H](F)C1 [Example 366, 5-(4-((4-(3-oxa-6-azabicyclo[3.1.1]heptan-6-yl)phenyl)amino)-1,3,5-triazin-2-yl)-2-(((3R,4S)-3-fluoro-1-((S)-2-hydroxypropanoyl)piperidin-4-yl)oxy)benzonitrile]	2

Target: hJAK2 (Homo sapiens (Human), UniProt O60674)
Assay: hJAK2 LANCE TR-FRET enzymatic assay
Type: biochemical
Conditions: read-out: JAK2 IC50

IC50 [nM]	Structure (SMILES)
718	C[C@H](O)C(=O)N1CC[C@H](Oc2ccc(-c3ncnc(Nc4ccc(N5CCN(C6COC6)CC5)c(C#N)c4)n3)cc2C#N)[C@H](F)C1 [Example 369, 5-((4-(3-cyano-4-(((3R,4S)-3-fluoro-1-((S)-2-hydroxypropanoyl)piperidin-4-yl)oxy)phenyl)-1,3,5-triazin-2-yl)amino)-2-(4-(oxetan-3-yl)piperazin-1-yl)benzonitrile]
488	C[C@H](O)C(=O)N1CC[C@@H](Oc2ccc(-c3ncnc(Nc4ccc(N5CCN(C6COC6)CC5)cc4)n3)cc2C#N)C1 [Example 88, 2-(((R)-1-((S)-2-hydroxypropanoyl)pyrrolidin-3-yl)oxy)-5-(4-((4-(4-(oxetan-3-yl)piperazin-1-yl)phenyl)amino)-1,3,5-triazin-2-yl)benzonitrile]
638	C[C@H](O)C(=O)N1CC[C@H](Oc2ccc(-c3ncnc(Nc4ccc(N5CCOC[C@@H]5CO)cc4)n3)cc2C#N)[C@H](F)C1 [Example 387, 2-(((3R,4S)-3-fluoro-1-((S)-2-hydroxypropanoyl)piperidin-4-yl)oxy)-5-(4-((4-((S)-3-(hydroxymethyl)morpholino)phenyl)amino)-1,3,5-triazin-2-yl)benzonitrile]
281	N#Cc1cc(-c2ncnc(Nc3ccc(N4CCN(C5COC5)CC4)cc3)n2)ccc1O[C@H]1CCOC1 [Example 216, (S)-5-(4-((4-(4-(oxetan-3-yl)piperazin-1-yl)phenyl)amino)-1,3,5-triazin-2-yl)-2-((tetrahydrofuran-3-yl)oxy)benzonitrile]
638	N#Cc1cc(-c2ncnc(Nc3ccc(N4CCN(C5COC5)CC4)cc3)n2)ccc1O[C@@H]1CN(C(=O)CO)C[C@@H]1F [Example 101, 2-(((3R,4S)-4-fluoro-1-(2-hydroxyacetyl)pyrrolidin-3-yl)oxy)-5-(4-((4-(4-(oxetan-3-yl)piperazin-1-yl)phenyl)amino)-1,3,5-triazin-2-yl)benzonitrile]
693	C[C@@H](O)C(=O)N1CC[C@@H](Oc2ccc(-c3ncnc(Nc4ccc(N5CCN(C6COC6)CC5)cc4)n3)cc2C#N)C1 [Example 91, 2-(((R)-1-((R)-2-hydroxypropanoyl)pyrrolidin-3-yl)oxy)-5-(4-((4-(4-(oxetan-3-yl)piperazin-1-yl)phenyl)amino)-1,3,5-triazin-2-yl)benzonitrile]
